# Literature values as cited in patent publication US7118899B2, “Detection of transmembrane potentials by optical methods” (The Regents of the University of California, priority 2001, dated 2006).
# Some compounds may have been tested in ways that are not shown here.
# Tested on: excitable tissue
# Settings: cited from earlier work
substance,measurement,value
"2,2′,4,4′,6,6′-hexanitrodiphenylamine",kinetics of displacement currents (in words),submillisecond kinetics
